Ab-14 heavy chain CDR variants: yeast mating affinities

Antigen: PDVDLGDISGINAS, a 14-residue peptide of the SARS-CoV-2 spike HR2 region.

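The starting antibody came from a phage panning campaign against this peptide. This is the validation round: designs drawn from the data on random variants, tested in the same kind of assay. Their group label is 14H_En_HC (En: ensemble of fine-tuned language models; HC: hill climbing; a sequence that several methods proposed may carry one label only). In AlphaSeq, yeast of one mating type display the scFv and yeast of the other type display the target. Binding brings cells together so that they mate, and sequencing counts the barcode pairs among the diploids. A regression on co-assayed BCL2-family reference pairs converts the normalised counts of each replicate to an apparent Kd. There are six technical replicates.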

Parent: Ab-14, a human scFv built as VH, the linker GGGGSGGGGSGGGGS, VL. Only the CDRs of the heavy chain vary.
VH: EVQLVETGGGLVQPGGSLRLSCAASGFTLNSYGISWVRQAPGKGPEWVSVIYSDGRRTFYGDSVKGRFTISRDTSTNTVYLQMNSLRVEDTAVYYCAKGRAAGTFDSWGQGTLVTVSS
VL: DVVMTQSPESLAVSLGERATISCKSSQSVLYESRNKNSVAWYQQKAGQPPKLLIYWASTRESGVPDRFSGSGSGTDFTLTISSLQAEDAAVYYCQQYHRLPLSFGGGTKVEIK

Variants are written as CDR1, CDR2 and CDR3 of the heavy chain (limits as in the source). Parent: GFTLNSYGIS, VIYSDGRRTFYGDSVK, GRAAGTFDS.
Numbers give log10(Kd / nM), so 0 is 1 nM and 3 is 1 µM. Smaller is tighter.
A mean of the replicates is given; it leaves out those without a signal.
Where no diploid with the target was found in that replicate, the entry reads "n.d.": below detection, most likely a poor binder, though not proof of it.
Of ten entries with the parent sequence, four were seen in most replicates (averages 0.34 to 2.37), three in one and three in none, so single entries are noisy.

CDR-H1,CDR-H2,CDR-H3,log10 Kd (nM) by replicate,"mean, log10 nM",signal with controls
GFDLNEYGIS,VIYADGRRTFYADDVK,GENAGTFDF,-0.14 / 0.22 / 0.19 / -0.17 / 0.35 / 0.02,0.08,0/18
GFDLNEYGIS,VIYADGKRTFYIDSVK,GENAGTFDM,0.25 / -0.56 / -0.08 / -0.34 / -0.22 / -0.19,-0.19,0/18
GFDLNEYGIS,VIYADGRRTAYSDSVK,GENAGFFDV,n.d. / n.d. / n.d. / n.d. / n.d. / n.d.,n.d.,1/18 (1.84)
GFDLNEYGIS,VIYADGRRTFYADSVK,GQLAGTFDS,-0.48 / -0.85 / -0.99 / -0.83 / -0.97 / -0.84,-0.83,0/18
GFDLNEYGIS,VIYADGLRTFYADSVK,GNVAGTFDT,-0.46 / -0.55 / -0.75 / -0.55 / -0.88 / -0.26,-0.58,0/18
GFDLDEYGIS,VIYADGRRTFYADSVK,GELAGTFDK,0.97 / 0.75 / 0.56 / 0.90 / 0.69 / 0.87,0.79,1/18 (2.49)
GFDLNEYGIS,VIYADGRRTFYSDSVK,GEAAGFFDI,n.d. / n.d. / n.d. / n.d. / n.d. / n.d.,n.d.,0/18
GFDLEDYGIS,VIYADGRRTFYADSVK,GNVAGTFIV,0.92 / -0.16 / 0.84 / -0.64 / -0.22 / 0.10,0.14,0/18
GFDLNEYGIS,VIYADGRRTFYADSVK,GTEAGTFDQ,n.d. / 2.53 / 0.74 / 2.80 / 2.23 / 2.29,2.12,0/18
GFNLNEYGIS,VIYADGMRTFYTDSVK,GETAGTFDA,-0.57 / -0.29 / -0.85 / -0.55 / -0.89 / -0.16,-0.55,0/18
GFDLNEYGIS,VIYADGLRTFYTDSVK,GEAAGTFDV,-0.20 / -0.34 / -0.06 / -0.25 / -0.19 / -0.04,-0.18,0/18
GFDLEDYGIS,VIYADGRRTYYADSVK,GEAAGTFDL,0.66 / -0.66 / -0.19 / 0.72 / -0.43 / -0.72,-0.10,0/18
GFDLNEYGIS,VIYADGRRTFYADSVK,GNTAGTFLQ,-0.62 / -0.74 / -0.60 / -0.46 / -0.66 / -0.47,-0.59,0/18
GFDLNEYGIS,VIYADGRRTFYIDSVK,GENAGTFDM,-0.72 / -0.63 / -0.62 / -0.72 / -0.86 / -0.78,-0.72,1/18 (1.93)
GFNLEDYGIS,VIYADGMRTFYVDSVK,GKVAGTFDV,-0.06 / 0.15 / 0.14 / -0.06 / -0.06 / 0.37,0.08,0/18
GFDLNEYGIS,VIYADGIRTFYADSVK,GNLAGTFDV,-0.41 / -0.53 / -0.60 / -0.67 / -0.68 / -0.48,-0.56,0/18
GFNLNEYGIS,VIYADGKRSFYSDSVK,GEAAGTFDV,-0.39 / -0.56 / -0.89 / -0.70 / -0.54 / -0.31,-0.57,0/18
GFDLNEYGIS,VIYADGRRTAYLDSVK,GNAAGTFDV,-0.46 / -0.58 / -0.89 / -0.69 / -0.55 / -0.53,-0.62,0/18
GFDLNEYGIS,VIYADGRRTFYSDSVK,GENAGFFDT,n.d. / n.d. / n.d. / n.d. / n.d. / n.d.,n.d.,0/18
GFDLNEYGIS,VIYADGRRKFYADKVK,GEVAGTFNV,-0.20 / -0.42 / -0.41 / -0.73 / -0.30 / -0.39,-0.41,0/18
GFDLNEYGIS,VIYADGRRTFYADSVK,GNAAGTFDE,-0.17 / -0.30 / 0.46 / -0.20 / -0.30 / 0.14,-0.06,0/18
GFDLNEYGIS,VIYADGFRTFYTDSVK,GEVAGTFDV,0.26 / -0.62 / -0.53 / -0.51 / -0.79 / 0.29,-0.32,0/18
GFDLNEYGIS,VIYADGKRTFYTDSVK,GEFAGTFDV,0.16 / 0.10 / 0.20 / 0.53 / -0.04 / 0.22,0.19,1/18 (1.30)
GFDLNEYGIS,VIYADGLRTSYDDSVK,GELAGTFDQ,-0.49 / -0.24 / 0.01 / -0.82 / -0.54 / -0.17,-0.38,0/18
GFDLNEYGIS,VIYADGLRTFYADSVK,GNAAGTFDV,-0.17 / -0.48 / -0.59 / -0.21 / -0.23 / 0.06,-0.27,0/18
GFNLNEYGIS,VIYADGRRTFYADSVK,GDQAGTFDM,n.d. / n.d. / n.d. / n.d. / n.d. / n.d.,n.d.,0/18
GFDLNEYGIS,VIYADGRRTQYIDSVK,GEAAGTFDK,-0.03 / -0.15 / 0.03 / -0.45 / -0.28 / 0.31,-0.09,0/18
GFDLNEYGIS,VIYADGRRTFYADSVK,GQNAGTFDQ,-0.52 / -0.43 / -0.83 / -0.82 / -0.69 / -0.58,-0.64,1/18 (1.83)
GFDLNEYGIS,VIYADGMRTFYADSVK,GNQAGTFIS,0.97 / 0.07 / 0.41 / 0.39 / -0.14 / 0.12,0.30,1/18 (1.37)
GFDLNEYGIS,VIYADGMRTAYTDSVK,GNEAGTFDK,n.d. / 0.12 / n.d. / -0.86 / n.d. / -0.69,-0.48,0/18
GFDLDEYGIS,VIYADGRRTFYTDSVK,GGNAGTFDQ,0.38 / -0.23 / -0.10 / -0.25 / -0.28 / 0.27,-0.04,0/18
GFDLNEYGIS,VIYADGRRTAYIDSVK,GEAAGTFDK,0.57 / -0.08 / 0.42 / 0.50 / 0.30 / 0.97,0.45,0/18
GFDLNEYGIS,VIYADGMRTFYTDSVK,GNVAGTFDS,-0.10 / -0.67 / -0.22 / -0.36 / -0.43 / 0.34,-0.24,0/18
GFDLNEYGIS,VIYADGMRTYYADSVK,GQNAGTFDQ,0.01 / -0.02 / -0.01 / 0.04 / 0.07 / -0.14,-0.01,0/18
GFDLEEYGIS,VIYADGQRTFYSDSVK,GENAGTFDI,-0.69 / -0.29 / -0.37 / -0.62 / -0.27 / -0.46,-0.45,0/18
GFDLNEYGIS,VIYADGRRSFYADSVK,GQLAGTFDQ,-0.37 / -0.65 / -0.68 / -1.02 / -0.81 / -0.66,-0.69,0/18

The closing 5 entries, repeated:

| CDR-H1 | CDR-H2 | CDR-H3 | log10 Kd (nM) by replicate | mean, log10 nM | signal with controls |
|---|---|---|---|---|---|
| GFDLNEYGIS | VIYADGRRTAYIDSVK | GEAAGTFDK | 0.57 / -0.08 / 0.42 / 0.50 / 0.30 / 0.97 | 0.45 | 0/18 |
| GFDLNEYGIS | VIYADGMRTFYTDSVK | GNVAGTFDS | -0.10 / -0.67 / -0.22 / -0.36 / -0.43 / 0.34 | -0.24 | 0/18 |
| GFDLNEYGIS | VIYADGMRTYYADSVK | GQNAGTFDQ | 0.01 / -0.02 / -0.01 / 0.04 / 0.07 / -0.14 | -0.01 | 0/18 |
| GFDLEEYGIS | VIYADGQRTFYSDSVK | GENAGTFDI | -0.69 / -0.29 / -0.37 / -0.62 / -0.27 / -0.46 | -0.45 | 0/18 |
| GFDLNEYGIS | VIYADGRRSFYADSVK | GQLAGTFDQ | -0.37 / -0.65 / -0.68 / -1.02 / -0.81 / -0.66 | -0.69 | 0/18 |

Three control strains display no target. For all heavy chain designs, 1% of the pairings with them gave a signal, with a median of 2.08 and one signal in twenty below 0.84, so weak values seen in few replicates may be background. Also given: how often the same scFv was detected with the empty control strains, with their mean in brackets.
A sequence measured in both rounds can read differently, since the two assays cover different ranges.
The authors' rule: three or more of the six replicates give a measured affinity, fewer mean a poor binder.

Source: Li et al. 2023 (doi:10.1038/s41467-023-39022-2), MIT Lincoln Laboratory and A-Alpha Bio; data file from the FLAb repository.